## scFv variants of Ab-14 (heavy chain) against a SARS-CoV-2 spike peptide

Binding partner: SARS-CoV-2 spike HR2 peptide, sequence PDVDLGDISGINAS.

Ab-14 is the parent antibody, in scFv form: VH, then a 15-residue (Gly4Ser)3 linker, then VL. The light chain is unchanged in all variants.
VH: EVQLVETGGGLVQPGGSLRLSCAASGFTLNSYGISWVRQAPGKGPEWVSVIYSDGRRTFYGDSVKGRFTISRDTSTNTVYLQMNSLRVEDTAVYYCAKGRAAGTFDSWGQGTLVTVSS
VL: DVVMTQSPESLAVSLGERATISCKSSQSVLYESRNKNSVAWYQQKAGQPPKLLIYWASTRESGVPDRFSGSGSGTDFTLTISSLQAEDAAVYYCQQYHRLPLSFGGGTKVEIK

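The parent was found by panning a naive human phage display library on the peptide. Variants in AAYL49 differ from the parent at up to three CDR positions; double and triple changes were sampled at random. Affinity was read by AlphaSeq, a pooled yeast mating assay with surface-displayed partners. Pairs that bind mate more often; barcode pairs of the diploids are counted by sequencing. Each replicate has its own calibration line, from reference interactions of the BCL2 family. Mating was done three times.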

Variants are written as CDR1, CDR2 and CDR3 of the heavy chain (limits as in the source). Parent: GFTLNSYGIS, VIYSDGRRTFYGDSVK, GRAAGTFDS. This list gathers variants with a substitution at I34 (VH, numbered from residue 1). The read-out is the apparent dissociation constant on a log10 scale (nM): the lower, the stronger. The mean shown is taken over the replicates in which the pair was detected. A pair that was not seen in any replicate is written "nd"; this usually means weak binding, but a binder can also be missed. Background: pairings of library AAYL49 with three empty control strains gave a value in 15% of cases (median 4.06, 5th percentile 2.83). Values in that range, when seen in few replicates, are hard to tell from nonspecific mating. Parent in this assay: reference entry 0.65, copy in this library 4.11 (one replicate of three).

The variant GFTLNSYGHS / VIYSDGRRTFYGDEIK / GRAAGTFDS gave nd (0 of 3 replicates).
The variant GFTLNSYGPS / VIASDGRRTFYGHSVK / GRAAGTFDS gave nd (0 of 3 replicates).
The variant GFTLNSYGWR / VIYSDGRRTFYPDSVK / GRAAGTFDS gave nd (0 of 3 replicates).
The variant GFTHNSYGSS / VIYSDGRRTFYGDSVK / GRFAGTFDS gave nd (0 of 3 replicates).
The variant WFTLNSYGWS / VIYSDGRRTFYGDSVK / GRAAGDFDS gave 4.49 (2 of 3 replicates).
The variant GFTLNSYGWS / VYYSDGRRTFYGDSVK / GKAAGTFDS gave nd (0 of 3 replicates).
The variant GFTLNSYGRS / VIYSDGRRTFYGDSVH / GRAAGTIDS gave nd (0 of 3 replicates).
The variant GFTLNSYGLS / VIYSWGRRTFKGDSVK / GRAAGTFDS gave 4.12 (2 of 3 replicates).
The variant GFTLNSYGYS / VIYSDGRRNFYGDSVK / GRAAGTFDS gave nd (0 of 3 replicates).
The variant GFTLNSYGES / VIYSDGARGFYGDSVK / GRAAGTFDS gave 3.92 (1 of 3 replicates).
The variant GFTLNSYGFS / VIYSDGIRTFYGDSVK / GRAAGTFDS gave 5.39 (1 of 3 replicates).
The variant GFLLNSYGAS / VIYSDGRRTFHGDSVK / GRAAGTFDS gave nd (0 of 3 replicates).
The variant GFTLNSYGYS / VIYSVGRRTFYGKSVK / GRAAGTFDS gave nd (0 of 3 replicates).
The variant GFTSNSYGPS / VIYSDGYRTFYGDSVK / GRAAGTFDS gave 4.71 (1 of 3 replicates).
The variant GFTLNSYGVS / VIYSDGRRPFYGDSVK / CRAAGTFDS gave nd (0 of 3 replicates).
The variant GFTLNSYGKS / VIYSDGTRTFYGDSVK / GRAAGTFDS gave nd (0 of 3 replicates).
The variant YFTLNSYGFS / VIYSRGRRTFYGDSVK / GRAAGTFDS gave 4.11 (1 of 3 replicates).
The variant GFTLNSYGES / VKYSDGRRTSYGDSVK / GRAAGTFDS gave nd (0 of 3 replicates).
The variant GFTLNSYGQS / VIYSDLFRTFYGDSVK / GRAAGTFDS gave 5.58 (3 of 3 replicates).
The variant GFTLNSYGPS / VIYSDGRRTFYFDSVK / GRAAGTFYS gave nd (0 of 3 replicates).
The variant GFTLNSYGHS / VIYSDGRRTFYGDSVK / QNAAGTFDS gave 4.05 (1 of 3 replicates).
The variant GFTLNSYGRS / VIYSDGRRTFYGDSGK / GRAAGTFDS gave 4.38 (3 of 3 replicates).
The variant GFTLNSYGKS / VIYSDGRGTFYTDSVK / GRAAGTFDS gave nd (0 of 3 replicates).
The variant GFTLNSYDAS / RIYSDGRRTFYGDSVK / GRAAGTFDS gave nd (0 of 3 replicates).
The variant GITLNSYGGS / VWYSDGRRTFYGDSVK / GRAAGTFDS gave 5.19 (1 of 3 replicates).
The variant GFTLNSYGQS / RIYSDGRRTYYGDSVK / GRAAGTFDS gave nd (0 of 3 replicates).
The variant GFNLVSYGWS / VIYSDGRRTFYGDSVK / GRAAGTFDS gave nd (0 of 3 replicates).
The variant GFTLNSYGAS / VIYSDGRRTEYGDSVK / GRAAGTFTS gave 4.33 (1 of 3 replicates).
The variant QFTLNSYGMS / VIYSDGRSTFYGDSVK / GRAAGTFDS gave nd (0 of 3 replicates).
The variant GFTLNSYGCS / EIYSDGRRTFYGDSVK / GRAAGTFAS gave nd (0 of 3 replicates).
The variant GFTLNSYGSS / VIYSDGRRTFYGDSVK / QRAAGTYDS gave nd (0 of 3 replicates).
The variant GFTLNSYGWS / VIYSDGRRTFYGDSVK / GHAAGTFNS gave 5.13 (2 of 3 replicates).
The variant GFTGNSYGLS / VNYSDGRRTFYGDSVK / GRAAGTFDS gave nd (0 of 3 replicates).

The opening 5 entries, copied out:

Variant GFTLNSYGHS / VIYSDGRRTFYGDEIK / GRAAGTFDS showed nd (0 of 3 replicates).
Variant GFTLNSYGPS / VIASDGRRTFYGHSVK / GRAAGTFDS showed nd (0 of 3 replicates).
Variant GFTLNSYGWR / VIYSDGRRTFYPDSVK / GRAAGTFDS showed nd (0 of 3 replicates).
Variant GFTHNSYGSS / VIYSDGRRTFYGDSVK / GRFAGTFDS showed nd (0 of 3 replicates).
Variant WFTLNSYGWS / VIYSDGRRTFYGDSVK / GRAAGDFDS showed 4.49 (2 of 3 replicates).

Source: Engelhart et al. 2022 (doi:10.1038/s41597-022-01779-4), MIT Lincoln Laboratory and A-Alpha Bio; data file from the FLAb repository.